Protein sequences, listed by entry. Tags and fused reporters are not part of them.
UniProt Q38C42, entry or part of it: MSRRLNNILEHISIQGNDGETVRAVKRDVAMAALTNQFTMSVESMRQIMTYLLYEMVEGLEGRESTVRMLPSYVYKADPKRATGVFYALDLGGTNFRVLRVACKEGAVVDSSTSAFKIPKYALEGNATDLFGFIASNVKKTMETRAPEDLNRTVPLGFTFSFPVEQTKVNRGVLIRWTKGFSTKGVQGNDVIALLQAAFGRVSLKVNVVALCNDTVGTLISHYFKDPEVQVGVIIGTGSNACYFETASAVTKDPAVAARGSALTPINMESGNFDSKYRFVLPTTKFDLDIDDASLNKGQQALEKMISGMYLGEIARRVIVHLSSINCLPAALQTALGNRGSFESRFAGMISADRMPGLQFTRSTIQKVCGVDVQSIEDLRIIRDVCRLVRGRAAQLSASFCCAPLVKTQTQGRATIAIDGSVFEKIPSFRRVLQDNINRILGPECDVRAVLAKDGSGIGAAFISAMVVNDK

In publication PMC2854128, “A Target-Based High Throughput Screen Yields Trypanosoma brucei Hexokinase Small Molecule Inhibitors with Antiparasitic Activity” (PLoS Neglected Tropical Diseases, 2010):

Tests used:
Format in all cases: biochemical
TbHK1 [1] = target: T1, TbHK1 (Trypanosoma brucei brucei, UniProt Q38C42); assay: Kinetic analysis of TbHK1 inhibition with respect to ATP (Lineweaver-Burk)
Experimental: (§1) Parasite lysates from BSF parasites were prepared by incubation (5 min on ice) of 1.5×10^7 cells in lysis buffer (0.1 M TEA, pH 7.4, and 0.1% Triton X-100) supplemented with 1 mM PMSF, 5 µg/ml leupeptin, and 100 µg/ml TLCK. In triplicate, cell equivalents (2×10^5) were incubated with increasing concentrations of inhibitor for 15 minutes at RT prior to initiation of the coupled reaction. In short, the 200 µl reactions included 50 mM TEA, pH 7.4, 33 mM MgCl2, 20 mM glucose, 5.25 mM ATP, 0.75 mM NADP, and 0.1 units of G6PDH, with kinetic analyses performed using KaleidaGraph 4.1 (Synergy Software, Reading, PA).
Assays were performed as described for cell lystates (see Materials and Methods) with ATP concentrations varied.

[2] = target: T. brucei lysate-derived TbHK1 (Trypanosoma brucei brucei, UniProt Q38C42); assay: Inhibition assay of lysate-derived TbHK; conditions: read-out: IC50 against T. brucei lysate-derived TbHK1 enzymatic activity; 2×10^5 BSF cell equivalents, 15 min preincubation at RT
Experimental: as §1

TbHK1 [3] = target: T1, TbHK1; assay: TbHK1 coupled enzyme HTS assay (G6PDH coupled, bacterially expressed rTbHK1)
Experimental: For purification of bacterially expressed TbHK1 (rTbHK1), a previously described protocol was modified to increase yield. Briefly, a starter culture of E. coli M15(pREP) harboring pQE30 (Qiagen, Valencia, CA) with the TbHK1 gene cloned in frame of a 6-His tagging sequence was grown in ECPM1 [9] and then inoculated into a 5 L bioreactor (Biostat B, B. Braun Biotech International, Allentown, PA) and grown at 37°C. At OD600 between 3–5, the culture was induced with IPTG (0.8 mM), grown without supplement O2 (37°C, 16 hr), and cells collected by centrifugation (5000×g, 20 min, 4°C). The pellet was resuspended in lysis buffer (50 mM NaPO4, pH 8.1, 5 mM glucose, 150 mM NaCl, and 0.1% Tween) and lysed by using a cell disruptor (Constant Cell Disruption Systems, Sanford, NC). The resulting supernatant was applied (5 ml/min) to a 50 ml ProBind column (Invitrogen, Eugene, OR) on a FPLC (GE Lifesciences, Piscataway, NJ) and protein eluted by gradient (5 to 250 mM imidazole) in lysis buffer. […]
TbHK1 assays were an adaptation of a coupled enzyme HK assay to a 384-well format, [10]. […] The resulting signal, which remained stable for up to 5 hr after addition of stop reagent, was collected on a Molecular Devices SpectraMax M5 (absorbance at OD340)(Sunnyvale, CA).

O=c1c2ccccc2sn1-c1ccccc1 [SID 17387000, 2-phenyl-1,2-benzisothiazol-3(2H)-one]
Ki (TbHK1 [1]): 6890 nM
Nature of TbHK1 inhibition (TbHK1 [1]; with respect to ATP): mixed inhibitors
IC50 [2]: 1200 ± 120 nM
IC50 (TbHK1 [3]): 2000 ± 500 nM
